How the values were obtained:
Histone deacetylase 1 = Histone deacetylase 1 (Homo sapiens, UniProt Q13547); test: Inhibition of recombinant full-length HDAC1 (unknown origin) using MAZ1600/MAZ1675 as substrate assessed as release of 7 amino-4-methylcoumarin measured every 5 mins by fluorescence assay
Summary of the method: (§1)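 AMC release after deacetylase plus trypsin action read every 5 min. First derivative in the linear range used. Replicates normalised to DMSO controls (<0.5%). IC50 by logistic regression, unconstrained max/min.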

Protein sequences, listed by entry. Tags and fused reporters are not part of them. Lines headed by an entry give the natural chain unless they say otherwise; changes in a name come on top.
UniProt Q13547, whole entry: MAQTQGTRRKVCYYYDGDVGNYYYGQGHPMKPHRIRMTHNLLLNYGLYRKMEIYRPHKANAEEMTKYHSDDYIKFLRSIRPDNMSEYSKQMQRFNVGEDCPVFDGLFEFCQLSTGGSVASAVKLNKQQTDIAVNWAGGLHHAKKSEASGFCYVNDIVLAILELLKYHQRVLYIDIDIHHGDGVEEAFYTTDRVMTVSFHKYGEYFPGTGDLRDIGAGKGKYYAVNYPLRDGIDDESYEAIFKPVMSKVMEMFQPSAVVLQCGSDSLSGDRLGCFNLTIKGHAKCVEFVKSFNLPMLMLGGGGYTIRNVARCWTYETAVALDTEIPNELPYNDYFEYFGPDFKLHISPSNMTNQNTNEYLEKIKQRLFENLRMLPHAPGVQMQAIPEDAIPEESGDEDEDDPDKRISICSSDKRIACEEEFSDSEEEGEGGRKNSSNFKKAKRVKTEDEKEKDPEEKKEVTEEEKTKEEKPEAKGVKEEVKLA
UniProt Q92769, whole entry: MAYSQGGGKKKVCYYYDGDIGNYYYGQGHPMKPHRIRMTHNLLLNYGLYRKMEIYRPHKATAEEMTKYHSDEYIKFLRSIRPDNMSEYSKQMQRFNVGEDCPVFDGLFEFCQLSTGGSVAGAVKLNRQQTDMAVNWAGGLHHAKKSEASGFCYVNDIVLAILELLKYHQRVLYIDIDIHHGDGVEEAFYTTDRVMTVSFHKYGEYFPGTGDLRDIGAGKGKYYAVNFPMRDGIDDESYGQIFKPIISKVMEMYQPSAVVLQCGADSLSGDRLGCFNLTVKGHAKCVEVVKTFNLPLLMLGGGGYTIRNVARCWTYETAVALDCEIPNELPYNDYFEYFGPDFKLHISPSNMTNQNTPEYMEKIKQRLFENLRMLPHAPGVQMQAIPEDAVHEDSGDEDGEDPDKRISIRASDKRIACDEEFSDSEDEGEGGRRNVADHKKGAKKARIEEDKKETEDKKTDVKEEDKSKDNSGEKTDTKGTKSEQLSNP
UniProt O15379: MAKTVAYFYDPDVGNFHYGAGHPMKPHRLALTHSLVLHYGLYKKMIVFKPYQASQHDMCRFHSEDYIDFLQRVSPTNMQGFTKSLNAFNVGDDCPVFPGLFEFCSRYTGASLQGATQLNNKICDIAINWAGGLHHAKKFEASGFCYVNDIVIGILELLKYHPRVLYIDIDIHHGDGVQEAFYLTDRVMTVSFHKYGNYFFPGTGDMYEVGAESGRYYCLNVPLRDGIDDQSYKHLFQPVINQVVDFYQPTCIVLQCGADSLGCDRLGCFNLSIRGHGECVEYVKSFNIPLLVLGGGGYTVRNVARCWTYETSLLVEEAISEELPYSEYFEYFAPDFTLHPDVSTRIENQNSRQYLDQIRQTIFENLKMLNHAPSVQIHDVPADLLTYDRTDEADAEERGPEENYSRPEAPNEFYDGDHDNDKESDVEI

Histone deacetylase 2 = Histone deacetylase 2 (Homo sapiens, UniProt Q92769); test: Inhibition of recombinant full-length HDAC2 (unknown origin) using MAZ1600/MAZ1675 as substrate assessed as release of 7 amino-4-methylcoumarin measured every 5 mins by fluorescence assay; summary of the method: as §1
[1] = biological target: T1, Protein deacetylase HDAC6 (Homo sapiens, UniProt Q9UBN7); test: Inhibition of recombinant full-length HDAC6 (unknown origin) using MAZ1600/MAZ1675 as substrate assessed as release of 7 amino-4-methylcoumarin measured every 5 mins by fluorescence assay
T1 sequence (Q9UBN7 whole entry): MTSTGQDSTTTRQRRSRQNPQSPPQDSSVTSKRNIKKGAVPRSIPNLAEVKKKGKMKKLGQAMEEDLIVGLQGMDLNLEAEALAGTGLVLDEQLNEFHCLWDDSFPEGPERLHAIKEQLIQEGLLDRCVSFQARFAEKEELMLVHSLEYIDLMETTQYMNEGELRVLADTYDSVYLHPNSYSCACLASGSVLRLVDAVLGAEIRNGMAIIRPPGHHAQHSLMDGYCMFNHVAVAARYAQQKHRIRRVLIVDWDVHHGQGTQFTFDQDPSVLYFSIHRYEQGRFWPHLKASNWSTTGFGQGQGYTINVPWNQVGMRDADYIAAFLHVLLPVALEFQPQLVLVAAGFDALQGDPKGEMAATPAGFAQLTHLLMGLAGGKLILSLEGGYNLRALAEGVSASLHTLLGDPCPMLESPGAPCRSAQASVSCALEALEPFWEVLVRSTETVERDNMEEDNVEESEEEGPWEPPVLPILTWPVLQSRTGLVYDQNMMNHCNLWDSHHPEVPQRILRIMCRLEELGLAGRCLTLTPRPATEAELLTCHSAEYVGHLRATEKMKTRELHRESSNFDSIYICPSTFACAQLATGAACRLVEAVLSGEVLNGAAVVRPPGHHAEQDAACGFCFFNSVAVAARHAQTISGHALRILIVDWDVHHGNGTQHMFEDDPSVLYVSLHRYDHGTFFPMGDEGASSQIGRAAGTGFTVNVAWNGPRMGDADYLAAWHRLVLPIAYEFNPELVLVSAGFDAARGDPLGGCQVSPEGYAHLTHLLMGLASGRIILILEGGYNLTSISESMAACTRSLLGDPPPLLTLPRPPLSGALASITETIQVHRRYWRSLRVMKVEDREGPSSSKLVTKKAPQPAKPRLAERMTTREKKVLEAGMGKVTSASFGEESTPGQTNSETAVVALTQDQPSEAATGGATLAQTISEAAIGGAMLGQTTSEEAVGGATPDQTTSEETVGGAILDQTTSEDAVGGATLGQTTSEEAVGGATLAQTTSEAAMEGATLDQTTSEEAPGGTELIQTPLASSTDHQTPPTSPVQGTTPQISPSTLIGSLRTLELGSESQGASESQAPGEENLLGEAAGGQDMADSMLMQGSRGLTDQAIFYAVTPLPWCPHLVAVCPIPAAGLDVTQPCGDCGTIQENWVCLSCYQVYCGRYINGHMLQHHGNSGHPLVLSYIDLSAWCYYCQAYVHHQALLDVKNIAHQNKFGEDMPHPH
Summary of the method: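 AMC release after deacetylase/trypsin action read every 5 min. Linear-range first derivative normalised to DMSO controls (<0.5%). IC50 by unconstrained logistic regression.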

Histone deacetylase 3 = Histone deacetylase 3 (Homo sapiens, UniProt O15379); test: Inhibition of recombinant full-length HDAC3 (unknown origin) using MAZ1600/MAZ1675 as substrate assessed as release of 7 amino-4-methylcoumarin measured every 5 mins by fluorescence assay

CC(C)[C@@H]1NC(=O)[C@]2(C)CSC(=N2)c2csc(n2)CNC(=O)C[C@@H](/C=C/CCS)NC1=O
IC50 (Histone deacetylase 1): 1.95 nM
IC50 (Histone deacetylase 2): 3.38 nM
IC50 [1]: 102 nM
IC50 (Histone deacetylase 3): 2.59 nM

From ChEMBL document CHEMBL3593208 (Bioorg Med Chem, 2015)
